By UniProt entry, the sequences of proteins in these tests, tags left out. Residues count along the entry.
UniProt Q8NBP7, 31-692: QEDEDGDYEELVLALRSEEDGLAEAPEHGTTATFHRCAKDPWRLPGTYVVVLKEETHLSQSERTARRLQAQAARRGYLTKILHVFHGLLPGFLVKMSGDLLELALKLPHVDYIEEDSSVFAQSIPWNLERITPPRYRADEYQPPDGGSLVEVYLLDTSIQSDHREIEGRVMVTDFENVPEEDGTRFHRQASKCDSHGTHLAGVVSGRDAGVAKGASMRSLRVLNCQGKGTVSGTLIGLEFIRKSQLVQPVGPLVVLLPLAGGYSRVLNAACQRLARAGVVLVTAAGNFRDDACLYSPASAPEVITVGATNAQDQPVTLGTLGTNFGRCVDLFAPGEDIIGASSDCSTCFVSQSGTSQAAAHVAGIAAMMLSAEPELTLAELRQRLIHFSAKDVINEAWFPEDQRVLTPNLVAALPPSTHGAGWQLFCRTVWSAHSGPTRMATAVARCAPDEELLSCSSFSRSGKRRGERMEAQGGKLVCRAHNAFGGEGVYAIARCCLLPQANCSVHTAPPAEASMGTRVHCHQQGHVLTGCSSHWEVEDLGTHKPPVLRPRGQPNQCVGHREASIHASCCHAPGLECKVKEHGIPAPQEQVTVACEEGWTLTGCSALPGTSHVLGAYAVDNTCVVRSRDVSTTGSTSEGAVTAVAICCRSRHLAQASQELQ

In publication PMC8698692, “Generation of a Novel High-Affinity Antibody Binding to PCSK9 Catalytic Domain with Slow Dissociation Rate by CDR-Grafting, Alanine Scanning and Saturated Site-Directed Mutagenesis for Favorably Treating Hypercholesterolemia” (Biomedicines, 2021):

Columns and labels:
[1] = target: T1, human proprotein convertase subtilisin/kexin type 9 (hPCSK9), recombinant (Homo sapiens, UniProt Q8NBP7, biotinylated with a biotinylation kit for the BLI assay only (sites not given)); assay: cell-based or functional assay
[2] = target: T1, human proprotein convertase …; assay: BLI; ForteBio Octet QKe; biotinylated hPCSK9 (50 μg/mL) immobilised on streptavidin biosensors; 2-fold dilutions of antibody (scFvs 6000-93.75 nM, mAbs 800-12.5 nM), association 300 s or longer, dissociation 600 s in SD buffer (PBS, 0.02% Tween 20, 0.1% BSA, pH 7.4); global fit; conditions: both partners purified

- reduction in serum LDL-C relative to the model group in mice over-expressing hPCSK9, h5E12-L230G at 1, 3 and 10 mg/kg (5.8%, 30.1%, 36.2%) [1]: 36.2%
- Kd [2]: 1.72 nM
- koff [2]: 4.84e-05 s⁻¹
- kon [2]: 28100 M⁻¹ s⁻¹
B1: h5E12-L230G, humanized full-length IgG1 mAb against hPCSK9 (antibody, V domains shown)
VH: QVQLVQSGAEVKKPGASVKVSCKASGYTFTSYWMHWVRQAPGQGLEWMGEINPSNGRTDHSEKFKNRVTMTRDTSTSTVYMELSSLRSEDTAVYYCARFHYDYDYFDYWGQGTLVTVSS
VL: DIVMTQSPSSLSASVGDRVTITCKASRNVGNSVGWYQQKPGKAPKLLIYSASYRYSGVPSRFSGSGSGTDFTLTISSLQPEDFATYYCQQYNRYPGTFGQGTKVEIK
